The numbers were not newly measured in US10905897B2, “Synergistic treatment methodologies using light therapy” (Neuro-Laser Foundation, Inc., priority 2016, dated 2021), which cites them from elsewhere.

The data set deals with depressive symptoms and suicidal ideation. Conditions: ketamine 0.5 mg/kg infused over a 30-40 minute period, single infusion; cited from earlier work.

As to `CNC1(c2ccccc2Cl)CCCCC1=O` (stereo not shown) [ketamine], the “patients with rapid reduction in depressive symptoms and suicidal ideation” value is 60-75%.
